pIC50: −log10 of the molar value.
Molecular target: Voltage-dependent N-type calcium channel subunit alpha-1B (Rattus norvegicus) (UniProt Q02294)
Assay: In vitro antagonism of N-type calcium channels expressed in PC12 cells was determined as the increase in intracellular calcium influx

SMILES: Cl.NC1CCN(C(=O)CCC(c2ccc(F)cc2)c2ccc(F)cc2)CC1
- pIC50: 5.99

Source: ChEMBL document CHEMBL1139437, “Design, synthesis, and preliminary pharmacological evaluation of 4-aminopiperidine derivatives as N-type calcium channel blockers active on pain and neuropathic pain” (J Med Chem, 2004)
